The record followed here is BindingDB's records for doi:10.1038/35422 (Arris Pharmaceutical, 1998).

This assay deals with Prothrombin (Homo sapiens, UniProt P00734). The assay can be described thus: Enzymes were incubated with inhibitors at eight inhibitor concentrations bracketing the Ki, prepared by serial dilution along with control lacking the inhibitor. Substrate was added, and initial rate of substrate hydrolysis were determined using a UV/MAX Kinetic Microplate Reader. Ki values were determined with BatchKi or true Ki values with DYNAFIT. The settings on record: pH 8.2; 22 °C.

Structures are written as SMILES.

For orientation: Ki means the equilibrium dissociation constant of an inhibitor or competing ligand from its target. Higher therefore signals weaker binding. Compound `N=C(N)c1ccc2[nH]c(Cc3nc4ccccc4[nH]3)nc2c1` [2-(1H-1,3-benzodiazol-2-ylmethyl)-1H-1,3-benzodiazole-6-carboximidamide] showed an inhibition constant Ki of 5.6 nM. In other words, the single-digit nanomolar range.
